{
  "source": "patent US10639298B2",
  "about": "(Biohaven Pharmaceutical Holding Company Ltd., priority 2015, dated 2020)",
  "tested_on": "Melanoma C8161 cells",
  "test": "Inhibition of human melanoma cell xenograft growth",
  "format": "in vivo, nude mice",
  "conditions": "7.5 mg/kg p.o. gavage every day for 21 days; P<0.01 (t test)",
  "procedure": "Melanoma C8161 cells were inoculated s.c. into nude mice at […]. […] Mice were treated every day for 21 days, and tumor sizes were measured twice weekly with a Vernier caliper.",
  "data": [
    {"smiles": "Nc1nc2ccc(OC(F)(F)F)cc2s1", "note": "[riluzole]", "values": [
      {"measurement": "Tumor volume vs untreated or vehicle-treated controls", "result": "significant reduction in tumor volume"}
    ]}
  ]
}
